Experiments:
[1] = Chemical stability: hydrolysis in 200 mM phosphate buffer, 37° C., LC-MS; details: per diastereoisomer, st = stable
[2] = Enzymatic stability: hydrolysis in rat intestinal homogenate, pH 6.5, 37° C., LC-MS; details: pH 6.5, T1/2 Int. Hom., per diastereoisomer, st = stable

COC(=O)[C@H](Cc1ccc(O[P@@]2(=O)CO[C@@H](Cn3ccc(N)nc3=O)CO2)cc1)NC(=O)[C@@H](N)C(C)C (single isomer, unassigned) [2f (S,R)]
half-life ([1]; pH 6.5, T1/2 Buffer pH 6.5, 200 mM phosphate buffer pH 6.5, 37° C.): 5.77 h
half-life ([1]; pH 7.4, T1/2 Buffer pH 7.4, 200 mM phosphate buffer pH 7.4, 37° C.): 1.1 h
half-life [2]: < 0.467 h

Source: patent US8940313B2, “Tyrosine-based prodrugs of antiviral agents” (priority 2010, dated 2015)
